This assay deals with T1, 5-HT3 receptor (Rattus norvegicus, UniProt P35563).
T1 construct: Brain cortices were obtained from male rats and a membrane fraction prepared by standard techniques; from tissue; host or cells: rat brain cortex membranes
The assay can be described thus: 5-HT3 radioligand receptor binding, [3H]-GR65630, rat brain cortex membranes. The note with it: read-out: Effect of Compounds on [H]-GR65630 Bound (0.2 nM): Ki; 0.2 nM [3H]-GR65630, rat brain cortex membranes, 66 minutes at 22° C. Here is the method:
5-HT4 agonist activity was determined in the in vitro rat tunica muscularis mucosae (TMM) assay described herein. (Baxter et al., Naunyn Schmied Arch. Pharmacol, 1991, 343, 439). […] One with skill in the art could determine the activity of the compounds of the present invention using the methodology of these assays, described herein, without undue experimentation.
Procedure: GR65630 binds to the 5-HT3 receptor. Brain cortices were obtained from male rats and a membrane fraction prepared by standard techniques. 0.04 mg of membrane prep was incubated with 0.2 nM [^3 H]-GR65630 for 66 minutes at 22° C. […] Membranes were filtered and washed 3 times and the filters were counted to determine [^3 H]-GR65630 specifically bound. [Kilpatrick GJ, Jones BJ and Tyers MB, Identification and Distribution of 5-HT3 Receptors in Rat Brain Using Radioligand Binding Assay, Nature 330, 746-748 (1987)].

Sequences of proteins named here, by UniProt entry; tags and fusion partners are left off. Residues count along the entry.
UniProt P35563, 24-483: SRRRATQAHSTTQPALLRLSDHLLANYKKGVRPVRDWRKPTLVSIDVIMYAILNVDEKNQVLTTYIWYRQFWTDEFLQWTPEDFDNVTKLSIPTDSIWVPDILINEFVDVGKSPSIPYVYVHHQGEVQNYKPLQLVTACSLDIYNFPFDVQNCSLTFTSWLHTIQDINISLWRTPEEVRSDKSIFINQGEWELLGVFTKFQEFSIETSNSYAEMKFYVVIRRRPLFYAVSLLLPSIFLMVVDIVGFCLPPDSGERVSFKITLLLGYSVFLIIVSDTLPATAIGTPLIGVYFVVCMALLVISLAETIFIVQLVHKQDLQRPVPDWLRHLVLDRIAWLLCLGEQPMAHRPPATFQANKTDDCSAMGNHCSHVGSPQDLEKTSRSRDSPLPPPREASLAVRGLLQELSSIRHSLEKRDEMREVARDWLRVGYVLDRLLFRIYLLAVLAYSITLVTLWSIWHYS

Usually Ki stands for a dissociation constant, usually derived from enzyme kinetics or from competition with a known ligand. For `COc1cc(N)c(Cl)cc1C(=O)NC1CCN(CCCOc2ccc(F)cc2)CC1OC` (stereo not shown) [Cisapride], the Ki is 1.5 µM.
